The source of these data is US7626033B2, “Compounds for the modulation of PPARγ activity” (AMGEN INC., priority 1999, dated 2009).

The chains behind the UniProt entries cited, without tags or fusion partners.
UniProt P37231, whole entry: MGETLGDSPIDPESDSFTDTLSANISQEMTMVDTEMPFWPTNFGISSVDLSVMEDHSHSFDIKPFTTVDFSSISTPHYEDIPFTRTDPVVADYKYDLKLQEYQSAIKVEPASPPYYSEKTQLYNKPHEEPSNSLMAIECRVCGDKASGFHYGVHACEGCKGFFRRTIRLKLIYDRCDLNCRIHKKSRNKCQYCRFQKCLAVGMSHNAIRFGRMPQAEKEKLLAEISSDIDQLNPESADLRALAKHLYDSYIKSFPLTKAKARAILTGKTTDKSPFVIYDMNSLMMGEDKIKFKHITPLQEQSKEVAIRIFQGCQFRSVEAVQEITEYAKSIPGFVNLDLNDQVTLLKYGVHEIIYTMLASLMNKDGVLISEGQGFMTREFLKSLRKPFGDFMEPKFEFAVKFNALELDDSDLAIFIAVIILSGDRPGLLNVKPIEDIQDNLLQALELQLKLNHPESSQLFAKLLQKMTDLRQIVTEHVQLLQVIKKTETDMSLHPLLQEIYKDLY

The target in one assay is PPARγ (UniProt P37231). Briefly: PPARγ ligand binding assay utilizing [3H]-BRL 49653 as the radioligand. Conditions: concentration reducing by 50% the specific binding of [3H]-BRL 49653.
Another assay deals with KK-Ay mice. Briefly: anti-diabetic efficacy in KK-Ay mice (change in serum glucose levels). The following applies: change in serum glucose levels compared to untreated control animals, 0.018% (30 mg/kg) dietary admixture in powdered diet.

The term IC50 denotes the concentration that gives 50% inhibition. Higher therefore signals weaker potency in that assay. In turn, `Cc1cc(S(=O)(=O)Nc2cc(Cl)c(Oc3cnc4ccccc4c3)c(Cl)c2)c(Cl)cc1Cl` yielded an IC50 on PPARγ below 1 µM. Moreover, the “KKAy Glucose” value with KK-Ay mice is given as “++ ((++) glucose lowering >20%)”. On to `O=S(=O)(Nc1ccc(Sc2ccc(Cl)c(Cl)c2)c(Cl)c1)c1ccc(Cl)c(Cl)c1`, for which the IC50 on PPARγ is below 10 µM. Consider `Nc1cc(Cl)c(Oc2nc3ccc(Cl)cc3s2)c(Cl)c1`, for which, at PPARγ, the IC50 was below 10 µM. The “KKAy Glucose” value in the assay on KK-Ay mice is recorded as “+ ((+) 10% to 20%)”. As to `O=S(=O)(Nc1cc(Cl)c(Oc2cnc3ccccc3c2)c(Cl)c1)c1ccc(Cl)cc1Cl`, the “KKAy Glucose” value in the assay with KK-Ay mice is “++ ((++) glucose lowering >20%)”. Consider `Cc1ccc2nc(Nc3c(Cl)cc(NS(=O)(=O)c4ccc(C(F)(F)F)cc4Cl)cc3Cl)sc2c1`, for which the IC50 on PPARγ was below 1 µM. Also, the “KKAy Glucose” value with KK-Ay mice was “− ((−) <10%)”. Compound `O=S(=O)(Nc1ccc(Sc2ccc(Cl)c(Cl)c2)c(Cl)c1)c1ccc(I)cc1` came in with an IC50 at PPARγ below 10 µM. With `O=S(=O)(Nc1ccc(Sc2ccc(Cl)c(Cl)c2)c(Cl)c1)c1ccc(Cl)cc1Cl`, the IC50 on PPARγ was below 1 µM. In turn, `Cc1ccc2sc(Sc3c(Cl)cc(NS(=O)(=O)c4ccc(C(F)(F)F)cc4Cl)cc3Cl)nc2c1` showed an IC50 at PPARγ below 1 µM.
